Cyclic peptide permeability, from CycPeptMPDB

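Lipid, pH, incubation time, direction and concentration are not recorded in the data file. The list need not hold all peptides of the study. Entries at the database's floor value (log10 P of -10) are not listed.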

PAMPA is the parallel artificial membrane permeability assay, which has no cells and reads passive diffusion. Permeability is given as log10 of P in cm/s; higher (less negative) is more permeable.

SMILES,PAMPA (log10 cm/s)
CC(C)C[C@@H]1C(=O)N[C@@H](Cc2ccccc2)CC(=O)N2CCC[C@H]2C(=O)N[C@H](CC(C)C)C(=O)N[C@@H](Cc2ccccc2)C(=O)N2CCC[C@@H]2C(=O)N(C)[C@H](C)C(=O)N1C,-5.55
CCCN1CC(=O)N(C)[C@@H](CC(C)C)C(=O)N[C@@H](Cc2ccccc2)CC(=O)N2CCC[C@H]2C(=O)N[C@@H](CC(C)C)C(=O)N[C@@H](Cc2ccccc2)C(=O)N2CCC[C@H]2C1=O,-5.71
CC(C)C[C@@H]1C(=O)N[C@@H](Cc2ccccc2)C(=O)N2CCC[C@@H]2C(=O)N(C)[C@@H](C)C(=O)N(Cc2ccccc2)CC(=O)N[C@H](CC(C)C)C(=O)N2CCC[C@H]2C(=O)N1C,-5.44
CC(C)C[C@@H]1C(=O)N(C)[C@@H](CC(C)C)C(=O)N2CCC[C@@H]2C(=O)N(C)[C@@H](CC(C)C)C(=O)N[C@@H](Cc2ccccc2)C(=O)N[C@@H](Cc2ccccc2)CC(=O)N1C,-5.53
CC(C)C[C@@H]1C(=O)N2CCC[C@H]2C(=O)N(Cc2ccccc2)CC(=O)N[C@@H](Cc2ccccc2)C(=O)N2CCC[C@H]2C(=O)N[C@H](C)C(=O)N[C@H](CC(C)C)C(=O)N1C,-6.63
CC(C)C[C@@H]1C(=O)N(C)[C@@H](CC(C)C)C(=O)N2CCC[C@H]2C(=O)N(C)[C@@H](CC(C)C)C(=O)N[C@@H](Cc2ccccc2)C(=O)N[C@@H](C)C(=O)N1C,-5.00
CC(C)C[C@@H]1C(=O)N[C@@H](Cc2ccccc2)C(=O)N[C@@H](C)C(=O)N(C)[C@@H](CC(C)C)C(=O)N(C)[C@H](CC(C)C)C(=O)N2CCC[C@@H]2C(=O)N1C,-5.84
CC(C)C[C@@H]1C(=O)N[C@@H](Cc2ccccc2)C(=O)N2CCC[C@@H]2C(=O)N[C@H](C)C(=O)N[C@H](CC(C)C)C(=O)N(C)[C@@H](CC(C)C)C(=O)N2CCC[C@H]2C(=O)N1C,-5.96
CCCN1CC(=O)N(C)[C@H](CC(C)C)C(=O)N(C)[C@@H](CC(C)C)C(=O)N2CCC[C@H]2C(=O)N[C@H](CC(C)C)C(=O)N[C@@H](Cc2ccccc2)C(=O)N2CCC[C@H]2C1=O,-6.11
CC(C)C[C@@H]1NC(=O)C[C@H](Cc2ccccc2)NC(=O)[C@H](Cc2ccccc2)NC(=O)[C@H](CC(C)C)NC(=O)[C@@H]2CCCN2C(=O)[C@@H](CC(C)C)NC1=O,-4.84
CC(C)C[C@@H]1C(=O)N[C@@H](Cc2ccccc2)C(=O)N2CCC[C@@H]2C(=O)N(C)[C@@H](C)C(=O)N(C)[C@@H](CC(C)C)C(=O)N[C@H](CC(C)C)C(=O)N2CCC[C@H]2C(=O)N1C,-5.73
CC(C)C[C@@H]1C(=O)N2CCC[C@H]2C(=O)N(Cc2ccccc2)CC(=O)N[C@@H](Cc2ccccc2)C(=O)N[C@@H](C)C(=O)N[C@H](CC(C)C)C(=O)N1C,-5.39
CCCN1CC(=O)N[C@H](CC(C)C)C(=O)N[C@@H](Cc2ccccc2)CC(=O)N2CCC[C@@H]2C(=O)N(C)[C@@H](CC(C)C)C(=O)N[C@@H](Cc2ccccc2)C(=O)N2CCC[C@H]2C1=O,-5.74

Data: CycPeptMPDB; original report Townsend et al. 2020, doi:10.26434/chemrxiv.13335941.v1.